Assays:
[1] = biological target: human growth hormone secretagogue receptor (hGHS-R1a) (Homo sapiens, UniProt Q92847); test: Competitive radioligand binding assay (ghrelin receptor), standard method A; conditions: binding activity at the human ghrelin receptor
[2] = biological target: GHS-R1a receptor (human ghrelin receptor) (Homo sapiens, UniProt Q92847); test: Aequorin functional assay (ghrelin receptor), standard method B; conditions: functional activity at the human ghrelin receptor

Protein sequences, listed by entry. Tags and fused reporters are not part of them.
UniProt Q92847, whole entry: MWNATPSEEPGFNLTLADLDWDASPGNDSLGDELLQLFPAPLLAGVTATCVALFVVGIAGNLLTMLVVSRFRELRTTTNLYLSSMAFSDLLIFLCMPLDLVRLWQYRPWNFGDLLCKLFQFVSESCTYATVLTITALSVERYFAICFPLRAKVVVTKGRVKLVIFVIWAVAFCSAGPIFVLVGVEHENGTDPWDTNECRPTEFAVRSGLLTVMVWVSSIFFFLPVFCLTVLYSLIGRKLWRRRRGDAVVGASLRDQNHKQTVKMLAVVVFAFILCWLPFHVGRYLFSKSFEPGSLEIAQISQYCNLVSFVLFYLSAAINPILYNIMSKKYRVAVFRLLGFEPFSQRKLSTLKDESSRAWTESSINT

CC(C)CC1NC(=O)C(C)N(C)C(=O)C(C2CC2)NCC(C)Oc2cccnc2CCCNC1=O (single isomer, unassigned)
Ki [1]: < 500 nM

CC(C)C[C@H]1NC(=O)[C@@H](C)N(C)C(=O)[C@H](C2CC2)NCC2Cc3cccc(c3O2)CCCNC1=O (single isomer, unassigned)
Ki [1]: > 500 nM

CC1CCc2ccccc2OCCNC(C2CC2)C(=O)N(C)C(C)C(=O)NC(Cc2ccc(O)cc2)C(=O)N1 (single isomer, unassigned)
Ki [1]: < 100 nM

CCC(C)C1NCC(C)Oc2ccccc2CCCNC(=O)C(CC(C)C)NC(=O)C(C)N(C)C1=O (single isomer, unassigned)
Ki [1]: < 100 nM | EC50 [2]: < 400 nM

C[C@@H]1C(=O)N[C@H](Cc2ccc(F)cc2)C(=O)NCCCc2cccc3c2OC(CN[C@@H](C2CC2)C(=O)N1C)C3 (single isomer, unassigned)
Ki [1]: < 100 nM
